Measured values: US20110098241A1, “RAPAMYCIN ANALOGS AS ANTI-CANCER AGENTS” (PONIARD PHARMACEUTICALS, INC., priority 2008, published 2011)

Molecular target: T1, mTOR (UniProt P42346+P62942)
T1 construct: purchased Calbiochem CBA055
Test: mTOR Assay Screening Protocol (K-LISA mTOR Activity Kit, inhibitor with FKBP12)
Type: biochemical
Settings: mTOR Standard pre-incubated with inhibitor and FKBP12 (35-37 ug/ml); p70S6K-T389 phosphorylation ELISA, absorbance at 450 nm
Protocol: mTOR Assay Screening Protocol
Kit: Calbiochem Cat. No. CBA055: K-LISA mTOR Activity Kit
The following table provides reagent preparation instructions to obtain the volume of Working Solutions (WS) required for 10 wells. Volumes can be scaled to process more samples and provide overage for pipetting error.
Reagent Volume (per 10-well strip) Composition: mTOR Substrate WS: 1 ml Dilution factor: 1:400 FKBP12: Sigma F5398 FK-Binding Protein human, recombinant, expressed in Escherichia coli
A. Protocol for mTOR Kinase Activity and Inhibitor Screening: 1. Remove the required number of strips from the Glutathione-Coated 96-Well Plate and place them in the 96-well frame. 2. Add 100 μl mTOR Substrate WS to each well and incubate for 1 h at room temperature. 3. When performing inhibitor screening/testing, pre-incubate 50 μl mTOR Standard (from step 2) with test inhibitor or wortmannin in a separate tube on ice for 20 min (for example 50 μl mTOR Standard with 1 μl Woltmannin, 50×). […]
*Pre-incubated with inhibitor in step 3 or without inhibitor 6. […] Add 100 pd ELISA Stop Solution to each well and read the absorbance at 450 nm, preferably with a reference wavelength set at 595 nm. […]

Substance: 42-O—[(R)-3-Hydroxypyrrolidin-1-yl)acetyl]-rapamycin [Example 7]
- IC50: 170 nM
